Structures can show the parent of a compound that is named as a salt.
Test system: Patient four
Assay: Protocol and results with patient four (morbid obesity, cardiomyopathy)
Assay type: in vivo, human
Conditions: July 1997; combination Ionamin 30 mg + Zoloft 25 + Pondimin
Procedure: This person has been in the practice for several years. Their medical problems surround a cardiomyopathy with a low cardiac output state and heart failure. They also have a history of hypertension, hypothyroidism on therapy, and morbid obesity.
Medication alterations continued over the next several months with increasing Ionamin to 30 mg. Hytrin was added at 2 mg because of prostatic symptoms and in November Pondimin was added.
Adipex-P 37.5 one-half was added to their medications. […]

CN[C@H]1CC[C@@H](c2ccc(Cl)c(Cl)c2)c2ccccc21 [Zoloft, sertraline HCl]
body weight: 217 lb
